PMC12603982 (Angewandte Chemie (International Ed. in English), 2025)

Molecular target: T1, hOTR (Homo sapiens, UniProt P30559)
T1 construct: expressed in transfected cells
T1 sequence (P30559 1-389): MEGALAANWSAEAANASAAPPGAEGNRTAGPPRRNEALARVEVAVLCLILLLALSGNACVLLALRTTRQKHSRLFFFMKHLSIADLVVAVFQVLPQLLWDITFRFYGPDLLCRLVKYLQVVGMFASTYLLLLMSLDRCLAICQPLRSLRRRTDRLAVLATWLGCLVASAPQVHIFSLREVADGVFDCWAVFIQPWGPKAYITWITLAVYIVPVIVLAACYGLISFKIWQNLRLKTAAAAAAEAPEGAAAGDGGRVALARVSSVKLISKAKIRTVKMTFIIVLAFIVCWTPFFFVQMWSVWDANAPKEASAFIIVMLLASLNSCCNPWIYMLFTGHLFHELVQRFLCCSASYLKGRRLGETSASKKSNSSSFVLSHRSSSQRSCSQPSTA
Assay: Radioligand displacement and saturation binding, membranes of HEK293 cells stably expressing hOTR, [3H]-OT
Conditions: saturation binding, stable cell line

Substance: oxytocin [[3H]-OT, oxytocin [tyrosyl-3,5-3H], reference compound]
- Kd: 0.65 nM
